We go through two molecules from US5981576A, “(Methylsulfonyl)phenyl-2-(5H)-furanones as COX-2 inhibitors” (Merck Frosst Canada, Inc., priority 1998, dated 1999).

The chains behind the UniProt entries cited, without tags or fusion partners. Residues count along the entry.
UniProt P23219, 24-599: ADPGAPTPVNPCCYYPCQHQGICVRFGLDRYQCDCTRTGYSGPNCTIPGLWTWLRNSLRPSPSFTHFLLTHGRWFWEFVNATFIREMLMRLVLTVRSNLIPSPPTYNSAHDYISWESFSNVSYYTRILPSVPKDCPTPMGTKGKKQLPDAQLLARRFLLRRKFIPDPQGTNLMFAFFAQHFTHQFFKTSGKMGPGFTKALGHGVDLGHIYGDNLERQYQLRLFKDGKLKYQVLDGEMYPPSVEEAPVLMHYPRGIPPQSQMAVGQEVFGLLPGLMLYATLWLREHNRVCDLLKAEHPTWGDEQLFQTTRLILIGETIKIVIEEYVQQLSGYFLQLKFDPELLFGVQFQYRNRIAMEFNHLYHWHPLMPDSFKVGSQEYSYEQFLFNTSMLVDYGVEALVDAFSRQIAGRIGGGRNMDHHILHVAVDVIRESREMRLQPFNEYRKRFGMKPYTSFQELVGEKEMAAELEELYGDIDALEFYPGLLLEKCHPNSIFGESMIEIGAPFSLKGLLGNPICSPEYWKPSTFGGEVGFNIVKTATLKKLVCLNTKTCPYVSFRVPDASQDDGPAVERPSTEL

The term IC50 denotes the midpoint of a concentration-inhibition curve.

This assay deals with COX-1 (Homo sapiens, UniProt P23219). In words: biochemical.

The structures appear in SMILES notation. Like-named read-outs stand apart in the source and are kept apart here.

For `CC1(C)OC(=O)C(Sc2ccccc2)=C1c1ccc(S(C)(=O)=O)cc1` [Example 11, 3-Phenylthio-5,5-dimethyl-4-(4-(methylsulfonyl)phenyl)-5H-furan-2-one], the IC50 (Table III, U937, read-out: COX-1 (IC50) U937) is > 30000 nM.

For `CS(=O)(=O)c1ccc(C2=C(Oc3ccccc3)C(=O)CC2)cc1` [Example 29, 3-(4-(Methylsulfonyl)phenyl)-2-phenoxycyclopent-2-enone], the IC50 was 1000 nM.
